In this experiment the target is Adenosine receptor A3 (Homo sapiens, UniProt P0DMS8). Briefly: Displacement of [125I]N6-(4-amino-3-iodobenzyl)adenosine-5'-N-methyl-uronamide from human adenosine A3 receptor expressed in CHO cell membranes incubated for 60 mins by liquid scintillation counting analysis.

Amino acid sequences for entries named in this document (tags omitted).
UniProt P0DMS8, whole entry: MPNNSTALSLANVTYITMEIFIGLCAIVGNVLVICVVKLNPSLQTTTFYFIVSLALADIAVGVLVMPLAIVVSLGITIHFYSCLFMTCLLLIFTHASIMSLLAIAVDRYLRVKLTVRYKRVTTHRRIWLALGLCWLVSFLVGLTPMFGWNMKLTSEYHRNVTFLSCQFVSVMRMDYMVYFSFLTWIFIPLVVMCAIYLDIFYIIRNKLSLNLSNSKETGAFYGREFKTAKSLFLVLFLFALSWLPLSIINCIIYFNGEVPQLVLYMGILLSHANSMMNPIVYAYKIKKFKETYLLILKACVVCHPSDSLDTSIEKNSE

This is an account of results in ChEMBL document CHEMBL3797168 (J Med Chem, 2016).

As for `CNC(=O)[C@@]12C[C@@H]1[C@@H](n1cnc3c(C)nc(C#Cc4cnccn4)nc31)[C@H](O)[C@@H]2O`, the Ki came to 343 nM.
